In PubChem BioAssay AID1415 (NMMLSC, 2008):
This is a selection; strong and weak results do not stand in their true shares. The source made the active and inactive calls. Cut-off read from the data, not from the text of the source: active = binding response below about 49% or above about 150%; inactive = in between.

Sequences of proteins named here, by UniProt entry; tags and fusion partners are left off.
UniProt P09471, whole entry: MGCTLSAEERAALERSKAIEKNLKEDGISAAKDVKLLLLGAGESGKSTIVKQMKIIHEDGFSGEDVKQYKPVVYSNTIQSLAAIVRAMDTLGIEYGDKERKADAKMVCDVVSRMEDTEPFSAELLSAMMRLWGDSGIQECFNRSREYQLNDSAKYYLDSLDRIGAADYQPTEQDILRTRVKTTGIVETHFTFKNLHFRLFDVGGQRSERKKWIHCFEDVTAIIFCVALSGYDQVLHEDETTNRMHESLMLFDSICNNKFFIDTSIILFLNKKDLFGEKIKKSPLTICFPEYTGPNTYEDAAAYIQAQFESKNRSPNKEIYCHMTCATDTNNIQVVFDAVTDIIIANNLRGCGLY

Target: Guanine nucleotide-binding protein G(o) subunit alpha (Homo sapiens) (UniProt P09471)
Experiment: RGS4-Galphao interaction inhibitors and enhancers – biochemical, multiplexed bead flow cytometry, primary screen (AID 1415);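 note: fluorescent Galphao activated with aluminum fluoride binding bead-coupled RGS4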
Settings: at 10 µM, actives lie on both sides

Question: How did the binding response (% of control) turn out when `c1ccc(CN2CCC(Nc3ccccc3)CC2)cc1` was run?
Answer: The binding response (% of control) was inactive: 97.1%.

Question: `N#Cc1ccc(C(=O)NCC2(N3CCCCC3)CCCCC2)cc1` was tested. Which binding response (% of control) did it give?
Answer: Its binding response (% of control) is inactive: 105%.

Question: `N/C(=N\O)c1c(N)no[n+]1[O-]` was tested. Which binding response (% of control) did it give?
Answer: The binding response (% of control) was inactive: 96.3%.

Question: `O=C(OC1CN2CCC1CC2)C1c2ccccc2C=Cc2ccccc21` (centres undefined) was tested. Which binding response (% of control) did it give?
Answer: The binding response (% of control) was inactive: 101%.

Question: `COc1ccc(C(=O)NCC2(N3CCOCC3)CCCCC2)cc1OC` was tested. Which binding response (% of control) did it give?
Answer: Its binding response (% of control) is inactive: 108%.

Question: Which binding response (% of control) does the source give for `COc1cc(OC)cc(C(=O)NCC2(N3CCOCC3)CCCCC2)c1` here?
Answer: Its binding response (% of control) is inactive: 98.8%.

Question: For `CCC(CO)(C(=O)OC1CN2CCC1CC2)c1ccccc1` (centres undefined), which binding response (% of control) is on record?
Answer: Its binding response (% of control) is inactive: 96.8%.

Question: For `CCCOc1ccc(C)cc1CN(CCCl)CCCl`, which binding response (% of control) is on record?
Answer: The binding response (% of control) was inactive: 92.7%.

Question: `CCOc1ncccc1C(=O)NCC1(N2CCOCC2)CCCCC1` was tested. Which binding response (% of control) did it give?
Answer: The binding response (% of control) was inactive: 127%.

Question: `CC(C)(C)OC(=O)N1CCC(Nc2ccccc2)CC1` was tested. Which binding response (% of control) did it give?
Answer: The binding response (% of control) was inactive: 98.5%.

Question: Which binding response (% of control) does the source give for `CCN1CCC(Nc2cccc(F)c2)CC1` here?
Answer: The binding response (% of control) was inactive: 103%.

Question: With `CN(C)c1ccc(C(=O)NCC2(N3CCCCC3)CCCCC2)cc1` as the compound, how does the binding response (% of control) read?
Answer: The binding response (% of control) was inactive: 95.5%.

Question: With `Fc1ccccc1NC1CCN(Cc2ccccc2)CC1` as the compound, how does the binding response (% of control) read?
Answer: Its binding response (% of control) is inactive: 98.6%.

Question: Which binding response (% of control) does the source give for `Cc1ccc(OCC(C)C)c(CN(CCCl)CCCl)c1` here?
Answer: The binding response (% of control) was inactive: 103%.

Question: Which binding response (% of control) does the source give for `CCOc1ccc(C)cc1CN(CCCl)CCCl` here?
Answer: The binding response (% of control) was inactive: 102%.

Question: `COc1ccc(NC2CCN(CCc3ccccc3)CC2)c(OC)c1` was tested. Which binding response (% of control) did it give?
Answer: The binding response (% of control) was inactive: 105%.

Question: With `O=C(NCC1(N2CCOCC2)CCCCC1)c1cc2ccccc2o1` as the compound, how does the binding response (% of control) read?
Answer: The binding response (% of control) was inactive: 118%.

Question: With `O=C(OC1CN2CCC1CC2)C1c2ccccc2Oc2ccccc21` (centres undefined) as the compound, how does the binding response (% of control) read?
Answer: Its binding response (% of control) is inactive: 97.5%.

Question: How did the binding response (% of control) turn out when `N#CC1(Nc2ccccc2)CCN(Cc2ccccc2)CC1` was run?
Answer: Its binding response (% of control) is inactive: 102%.

Question: How did the binding response (% of control) turn out when `CCOC(=O)N1CCC(Nc2ccc(OC)cc2)CC1` was run?
Answer: The binding response (% of control) was inactive: 97.9%.

Question: For `COc1ccc(C(=O)NCC2(N3CCCCC3)CCCCC2)c(OC)c1OC`, which binding response (% of control) is on record?
Answer: The binding response (% of control) was inactive: 105%.

Question: Which binding response (% of control) does the source give for `CC(C)c1ccc(NC2CCN(C(=O)OC(C)(C)C)CC2)cc1` here?
Answer: The binding response (% of control) was inactive: 102%.

Question: How did the binding response (% of control) turn out when `COc1ccc(CN(CCCl)CCCl)cc1Cl` was run?
Answer: Its binding response (% of control) is inactive: 100%.

Question: `CN(C)c1cccc(C(=O)NCC2(N3CCCCC3)CCCCC2)c1` was tested. Which binding response (% of control) did it give?
Answer: The binding response (% of control) was inactive: 96.8%.

Question: For `O=C(NCC1(N2CCOCC2)CCCCC1)c1cc(=O)[nH]c2ccccc12`, which binding response (% of control) is on record?
Answer: Its binding response (% of control) is inactive: 102%.

Question: How did the binding response (% of control) turn out when `CN1CCN(CCOC(=O)C(O)(c2ccccc2)c2ccccc2)CC1` was run?
Answer: Its binding response (% of control) is inactive: 103%.

Question: For `COc1ccc(NC2CCN(C(=O)OC(C)(C)C)CC2)cc1`, which binding response (% of control) is on record?
Answer: The binding response (% of control) was inactive: 98.1%.

Question: How did the binding response (% of control) turn out when `N#CC1(Nc2ccccc2)CCN(CCc2ccccc2)CC1` was run?
Answer: Its binding response (% of control) is inactive: 103%.

Question: With `O=C(NCC1(N2CCCCC2)CCCCC1)c1cccc([N+](=O)[O-])c1` as the compound, how does the binding response (% of control) read?
Answer: The binding response (% of control) was inactive: 101%.
